The values below come from PubChem BioAssay AID493014 (National Center for Advancing Translational Sciences (NCATS), 2011).

The structures appear in SMILES notation. Only a part is listed here, and it is no random draw. Inconclusive results are not listed. The source made the active and inactive calls. The call rests on the fitted dose curve; in most records, active means well fitted inhibition curve with a large enough effect in the signal ratio, with a control signal flat (not every such curve was filed as active); inconclusive means small, poorly fitted or top-dose-only effect, or effect the other way, or a change in a side signal; inactive means flat fitted curve, though single readings scatter; the % refers to the signal ratio.

A short description of the test: qHTS Assay to Find Inhibitors of Chronic Active B-Cell Receptor Signaling.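 Further: plate controls were basal doxycycline-induced cells for no effect and cells given 10 µM MG132 for full effect.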 As to conditions: ABC-DLBCL IkBa-CBG/CBR reporter, luminescence ratio (green luciferase fused to IkBa over red control in TMD8 lymphoma cells), 4 h; at 46.1 µM (top of the series). From the text:
NIH Molecular Libraries Probe Production Network [MLPCN] NIH Chemical Genomics Center [NCGC] MLPCN Grant: 1 R03 DA031086-01A1 PI Name: Dr. R. Eric Davis NCGC Assay Overview: Diffuse large B-cell lymphoma (DLBCL) is the most common category of non-Hodgkin lymphoma, with ~20,000 new cases per year in the United States. DLBCL should be regarded as a collection of different neoplasms. Microarray gene expression analysis has defined two principal types of DLBCL, named for their similarity to normal B cell stages or activation states: a germinal center B-cell (GCB) type, and an activated B-cell (ABC) type. In ABC-DLBCL, a constitutive high-level activity of the NF-kappaB family of transcription factors has been observed (1) and NF-kappaB target genes are more highly expressed in ABC primary tumors than in GCB tumors. Functional studies have shown a constitutive high-level activity of the IkappaB (inhibitor of kappa-B) kinase (IKK) complex. […] Further analysis of DLBCL primary tumors for NF-kappaB target gene expression imply that although CARD11 is required for constitutive IKK activity in all ABC-DLBCL lines, mutations in CARD11 may be the root cause of IKK activation only in lines or tumors with such mutations. In other words, CARD11 mutations may explain NF-kappaB activation in only 10% of ABC-DLBCL cases. […] This process has been termed 'chronic active BCR signaling' (CABS). The goal of this screen is to find small-molecule inhibitors of the CABS pathway found in ABC-DLBCL lines using a cell-based assay that measures IkappaBalpa stability, which has already been extensively validated in the OCI-Ly3 line (PubChem AID:445; REF: 4). […] The assay uses green (CBG68) and red (CBR) emitting beetle luciferases [Chroma-GloTM developed by Promega Corp.] where the green luciferase is fused to IkappaBalpha and the red luciferase is present in its native state. Both luciferase genes are stably present in the TMD8 human ABC DLBCL cell line, but their expression is under the control of tetracycline-inducible promoters. Following the addition of doxycycline to induce expression of the luciferases, the green luminescence in control cultures rises only slowly because the CBG fusion partner IkappaBalpha is targeted by IKK activity for rapid degradation. In contrast, green luminescence rises rapidly in the presence of proteasome inhibitors or IKK inhibitors. The rise in red luminescence of CBR is not affected by proteasome or IKK inhibitors, and serves as normalization for cell number and nonspecific effects. Compounds were screened as a concentration-titration series that ranged from 46 uM to 3 nM.
NCGC Assay Protocol Summary: Cells were seeded in 1536-well plates at 5000 cells/4uL in IMDM medium containing 0.5% FBS, w/o phenol red, 1% penicillin/streptomycin. Then, 23 nL of compounds or DMSO were delivered to each well using a pin tool. One uL 20ng/ml doxycycline was then dispensed into white solid 1536-well plates and the plates were incubated at 37C/5% C02 in a cell incubator for 4 hrs. Then 4 uL luminescent substrate mix (in-house prepared: 150 mM Tris-Cl, pH 7.6, 3 mM MgCl2, 1% Triton X-100, 5 mM DTT, 0.2 mM CoA, 0.15 mM ATP, 5 mM D-luciferin, final concentrations) was added to each well. The plate was incubated at r.t. for 10-15 min. The plates were measured on a ViewLux plate reader for green luminescence (540/20 nm filter) and red luminescence (618/8 nm filter). The green and red luminescent signals were corrected for red and green luminescence filter overlap using previously determined filter calibration constants (determined using the procedure outlined in the Promega Technical Manual; REF 4). The %Activity was determined from the ratio of corrected green/red luminescent values. MG132 were used as control. […] Red luminescent %Activity was normalized to the difference between red luminesence in basal cells (0%Activity) and zero luminescence (-100% Activity). […]
In the case of `Cc1ccc(NCCc2c([N+](=O)[O-])cc([N+](=O)[O-])cc2[N+](=O)[O-])cc1`, the activity change, negative = inhibition is inactive: 10.7%.

With `Nc1cccc2c([As](=O)(O)O)cccc12`, the activity change, negative = inhibition is inactive: -5.68%.

For `CCCOP(=S)(Nc1nc(N)cc(=O)[nH]1)OCCC`, the activity change, negative = inhibition was inactive: 0.175%.

In the case of `O=C(OC1CN2CCC1CC2)c1ccc(Cl)cc1` (configuration not stated), the activity change, negative = inhibition is inactive: -14%.

For `COc1cc(C(=O)NCC2(N3CCOCC3)CCCCC2)cc(Cl)c1OC(C)C`, the activity change, negative = inhibition is inactive: -0.502%.

Regarding `O=[As](O)(O)c1cccnc1`, the activity change, negative = inhibition is inactive: 3.48%.

As to `CS(=O)(=O)c1ccc(Cl)c(NC(=O)COC(=O)C(O)(c2ccccc2)c2ccccc2)c1`, the activity change, negative = inhibition is inactive: -2.73%.

With `N#CCCN(C(=O)COC(=O)C(O)(c1ccccc1)c1ccccc1)c1ccc(F)cc1`, the activity change, negative = inhibition was inactive: 9.68%.

`CCOP1(=S)c2c(C)nn(CCC#N)c2N=C(c2ccc(F)cc2)N1C` (configuration not stated): the activity change, negative = inhibition was inactive: 5.89%.

Regarding `CN(C(=O)Cc1ccccc1)[C@@H]1CC[C@]2(CCCO2)C[C@H]1N1CCCC1`, the activity change, negative = inhibition was inactive: -2.33%.

Turning to `O=[N+]([O-])c1ccc2c(c1)nnn2O`, the activity change, negative = inhibition was inactive: 0.489%.

With `NC(=O)Nc1ccc([As](=O)(O)O)cc1`, the activity change, negative = inhibition is inactive: -2.96%.

Regarding `O=C(O)COc1ccc([As](=O)(O)O)cc1[N+](=O)[O-]`, the activity change, negative = inhibition is inactive: 0.634%.

For `Nc1ccccc1[As](=O)(O)c1ccccc1`, the activity change, negative = inhibition was inactive: 6.45%.

As to `CCOP1(=S)c2c(C)nn(CCC#N)c2N=C(c2ccccc2F)N1C` (configuration not stated), the activity change, negative = inhibition was inactive: -16.2%.

Turning to `O=P(Nc1nccs1)(Oc1ccccc1)Oc1ccccc1`, the activity change, negative = inhibition is inactive: -0.228%.

For the compound `CS(=O)(=O)c1cc([N+](=O)[O-])c2no[n+]([O-])c2c1`, the activity change, negative = inhibition was inactive: 3.56%.

Consider `Nc1cccc([As](=O)(O)c2ccccc2)c1`, for which the activity change, negative = inhibition is inactive: 0.59%.

For the compound `NS(=O)(=O)c1cccc(NC(=O)COC(=O)C(O)(c2ccccc2)c2ccccc2)c1`, the activity change, negative = inhibition is inactive: 0.353%.

With `O=P1(Nc2ccc(Br)cn2)COc2ccccc2OC1`, the activity change, negative = inhibition was inactive: 1.67%.

Regarding `Cc1ccc(OCC(=O)OC2CN3CCC2CC3)cc1` (configuration not stated), the activity change, negative = inhibition was inactive: 4.39%.

Consider `O=[As](O)(c1cccs1)c1cccs1`, for which the activity change, negative = inhibition was inactive: -0.185%.

Regarding `CN(C)C1(CNC(=O)c2ccc(S(C)(=O)=O)cc2)CCCCC1`, the activity change, negative = inhibition was inactive: 5.79%.

With `O=C(/C=C/c1ccccc1)OC1CN2CCC1CC2` (configuration not stated), the activity change, negative = inhibition is inactive: 3.95%.

Take `Cc1nn(-c2ccccc2)c2c1P(=O)(N1CCOCC1)N(C)C(c1ccccc1)=N2` (configuration not stated): the activity change, negative = inhibition was inactive: 0.344%.

As for `Cc1ccc(C(=O)OC2CN3CCC2CC3)cc1` (configuration not stated), the activity change, negative = inhibition was inactive: 6.37%.

Regarding `CC1CCC(C(C)C)C(OP(=O)(Nc2ccccn2)c2ccccc2)C1` (configuration not stated), the activity change, negative = inhibition was inactive: -10.4%.

For `CC(C)/C=N\N=C(\N)N[N+](=O)[O-]`, the activity change, negative = inhibition is inactive: 0.0316%.

As for `O=[As](O)(c1ccccc1Br)c1ccccc1Br`, the activity change, negative = inhibition was inactive: 2.44%.

As for `COc1ccccc1CNC(=O)COC(=O)C(O)(c1ccccc1)c1ccccc1`, the activity change, negative = inhibition was inactive: 0.0489%.

Regarding `Clc1n[nH]nc1-c1nn[nH][15n]1`, the activity change, negative = inhibition is inactive: 2.45%.

For `CC(C)(C)C(=O)NC(Sc1ncccn1)C(Cl)(Cl)Cl` (configuration not stated), the activity change, negative = inhibition is inactive: -13.1%.

With `CCC1=CC2Cc3nc4ccc(Cl)cc4c(N)c3C(C1)C2` (configuration not stated), the activity change, negative = inhibition was inactive: -3.87%.

As to `CCOP(=O)(NC(=NC(C)c1ccccc1)NC(C)c1ccccc1)OCC` (configuration not stated), the activity change, negative = inhibition was inactive: -2.52%.

For the compound `CCC(C)N(CC(C)C)C(=S)SC(NC(C)=O)C(Cl)(Cl)Cl` (configuration not stated), the activity change, negative = inhibition is inactive: -6.98%.

In the case of `O=C(OC1CN2CCC1CC2)c1cccc([N+](=O)[O-])c1` (configuration not stated), the activity change, negative = inhibition is inactive: 1.04%.

As to `CCOC(=O)c1ccc(NC(=O)C(C)(CCl)SC)cc1` (configuration not stated), the activity change, negative = inhibition was inactive: 5.23%.

For `O=C(COc1ccccc1)OC1CN2CCC1CC2` (configuration not stated), the activity change, negative = inhibition was inactive: -0.723%.

For the compound `O=C(Nc1ccncc1[N+](=O)[O-])c1ccc([N+](=O)[O-])cc1[N+](=O)[O-]`, the activity change, negative = inhibition was inactive: 3.29%.

In the case of `COP1(=S)c2c(C)nn(CCC#N)c2N=C(c2ccc(F)cc2)N1C` (configuration not stated), the activity change, negative = inhibition is inactive: 2.47%.

In the case of `Cc1cc(SC(NC=O)C(Cl)(Cl)Cl)ncn1` (configuration not stated), the activity change, negative = inhibition was inactive: -9.94%.

In the case of `O=P(Nc1ccccn1)(c1cccc2ccccc12)c1cccc2ccccc12`, the activity change, negative = inhibition was inactive: -1.35%.

For `O=[N+]([O-])c1ccc(Nc2ccc(Oc3ccc([N+](=O)[O-])cc3[N+](=O)[O-])cc2)c([N+](=O)[O-])c1`, the activity change, negative = inhibition was inactive: 1.14%.

Take `CCOC(=O)Nc1cccc([As](=O)(O)O)c1`: the activity change, negative = inhibition is inactive: 0.264%.

For `CCCCOc1ccc(C(=O)NCC2(N3CCCCC3)CCCCC2)cc1OC`, the activity change, negative = inhibition is inactive: 5.34%.

`Cc1cc(SC(NC(=O)c2ccccc2)C(Cl)(Cl)Cl)nc(C(C)C)n1` (configuration not stated): the activity change, negative = inhibition was inactive: 1.18%.

As to `CCOC(=O)Nc1ccc([As](=O)(O)O)c(O)c1`, the activity change, negative = inhibition was inactive: 0.284%.

In the case of `CCN(CC)C(=S)SC(NC=O)C(Cl)(Cl)Cl` (configuration not stated), the activity change, negative = inhibition is inactive: 0.692%.

For `CC(C)c1ccc(OP(=O)(Nc2ccccn2)Oc2ccccc2F)cc1` (configuration not stated), the activity change, negative = inhibition is inactive: -3.44%.

Turning to `Cc1ccc2nc3c(c(C)c2c1)CC(C(Cl)Cl)S3` (configuration not stated), the activity change, negative = inhibition was inactive: 29%.

`O=[As](O)(c1ccc(O)cc1)c1ccccc1O`: the activity change, negative = inhibition was inactive: 2.84%.

With `C[As](=O)(O)c1cccc(C(=O)O)c1`, the activity change, negative = inhibition is inactive: -8.42%.

For the compound `COc1cc(C(=O)NCC2(N3CCOCC3)CCCCC2)ccc1OCC(C)C`, the activity change, negative = inhibition was inactive: -0.718%.

For the compound `COc1ccc(N/C(=N/P(=O)(N2CCOCC2)N2CCOCC2)N2CCOCC2)cc1`, the activity change, negative = inhibition was inactive: 2.56%.

`COc1ccc2nc(NP(=O)(c3ccccc3)c3ccccc3)sc2c1`: the activity change, negative = inhibition is inactive: 0.462%.

Turning to `O=C(OC1CN2CCC1CC2)C12CC3CC(CC(C3)C1)C2` (configuration not stated), the activity change, negative = inhibition was inactive: -4.36%.

As for `Cc1cc(=O)[nH]c(N[N+](=O)[O-])n1`, the activity change, negative = inhibition is inactive: 0.262%.
